Reference: publication PMC3936235

Tests used:
[1] = molecular target: Rac1-CyPet (wild type donor chain of the Rac1 FLARE dual chain FRET biosensor) (UniProt P63000); assay: Number and Brightness analysis; molecular brightness in each pixel, calibrated against free CyPet, YPet or EGFP as monomers; live NIH3T3 cells, transiently transfected; before and after micro-irradiation of the nucleus (DNA damage)
[2] = molecular target: importin-α-GFP (importin-α2, karyopherin-alpha-2, tagged to EGFP) (UniProt P52292); assay: cross Number and Brightness (cross variance) analysis; cross variance of the intensity fluctuations of the two fluorescent proteins in each pixel; live NIH3T3 cells, transiently co-transfected; before and after micro-irradiation of the nucleus (DNA damage)
[3] = molecular target: T17N-CyPet (dominant inactive mutant of the Rac1 donor chain) (UniProt P63000); assay: Number and Brightness analysis; molecular brightness in each pixel, calibrated against free CyPet, YPet or EGFP as monomers; live NIH3T3 cells, transiently transfected; before and after micro-irradiation of the nucleus (DNA damage)

| Substance | stoichiometry N [1] | increase in the pixels showing association upon DNA damage [2] | stoichiometry N [3] |
| --- | --- | --- | --- |
| Rac1-CyPet (wild type donor chain of the Rac1 FLARE dual chain FRET biosensor) (from UniProt P63000 1-192) (natural protein) | 2 | 21.9% | – |
| T17N-CyPet (dominant inactive mutant of the Rac1 donor chain) (from UniProt P63000 1-192) (natural protein) | – | – | > 2 |
